Assay results from patent US20060128688A1, “Asenapine for the treatment of schizophrenia in a patient with overweight or predisposition for overweight” (priority 2003, published 2006).
Like-named read-outs stand apart in the source and are kept apart here.

[1] = All-Subjects-Treated Group, baseline to day 42 or final day of treatment

For `Cc1nc2n(c(=O)c1CCN1CCC(c3noc4cc(F)ccc34)CC1)CCCC2` [risperidone], the “subjects with clinically significant decrease of ≧7% from baseline in body weight, %” value [1] was 2.1%, the “subjects with clinically significant weight gain (increase from baseline of ≧7%), %” value [1] was 17% and the “subjects with clinically significant weight gain (increase from baseline of ≧7%), %” value (All-Subjects-Treated Group, baseline to day 42 or final day of treatment, listed as Risperidone) was 17.0%. The “increase in body weight from baseline” value (at end point, group result) was 1.9%.
